Literature values, collected in US12600787B2, “Methods for the treatment of thyroid eye disease” (Horizon Therapeutics Ireland DAC, priority 2019, dated 2026).

Conditions: in vivo; cited from earlier work

In the case of Ganitumab, the T1/2 is listed as “IV; 6-9 days”.
